Read-outs that look alike come from different tables or passages of the source.
Experiments:
[1] = test system: core clock genes Per2, Bmal1, Cry2 in liver; test: Four day study, liver core clock gene mRNA in ICR mice; assay type: in vivo, mouse; conditions: 50 mg/kg PO BID 4 days
Method: Male ICR mice (weighing 30-35 g), obtained from Charles River Laboratories (Hollister, Calif.), were used for the experiment following at least 3 days of acclimation. Mice were dosed with vehicle (WFI or 10% Kolliphor) or compound (50 mg/kg, dose volume 5 mL/kg, PO) for 4 days BID (twice a day), beginning in the afternoon of the first day. The last dose of compound or vehicle was administered on the morning of harvest. On the day of harvest (6 hours following the final dose), mice were euthanized by CO2 asphyxiation and 50 mg of liver tissue was excised and placed in a tube containing 500 μl of RNA later.
E.Z.N.A.® HP Total RNA Isolation Kits (R6812-01 and the protocol described in the Manual, Revised 2010) were utilized to prepare and isolate RNA from the liver samples. To prepare the RNA samples, 10-30 mg of sample was removed from RNA-Later and placed in a 1.5 ml microfuge tube. GTC lysis buffer (700 μl) was added to the tissue, which was homogenized with a rotor-stator homogenizer (e.g. Tissue-Tearor, Model #985370 BioSpec Products with 4.5 mm probe, Cat. #985370-04), and then centrifuged at full speed (≥13,000×g) for 5 minutes. The cleared supernatant was transferred by pipetting to a DNA Clearance Column Pre-inserted in a 2 mL Collection Tube. The assembled column was centrifuged at 13,000×g for 1 minute, and the flow-through was saved. An equal volume (700 μl) of 70% ethanol was added to the lysate and mixed. The sample was then applied to a HiBind RNA spin column placed into a 2 ml collection tube, which was centrifuged at 10,000×g for 60 seconds at room temperature. […]
RediPlate 96 RiboGreen RNA Quantification Kit (Invitrogen) RediPlate standard curve was prepared by transferring 20 l reconstituted RNA standard to a RediPlate well reconstituted in 180 l RediPlate TE buffer. […] After transferring 5 l to RediPlate well reconstituted in 195 l TE buffer and incubating 10 min. at RT, Fluorescence Intensity of wells with standards and samples were read in a Tecan M200 with Excitation set at 480 nm and Emission set at 520 nm with the gain set to ˜70%. […]

[2] = test system: db/db mouse model of type II diabetes
[3] = test system: C57/Bl6J DIO mice; test: Increasing dosages of Compound 72 in diet-induced obesity (DIO) mouse model; assay type: in vivo; conditions: 30 mg/kg PO QD 7 days
From the text: (§1) Male C57/Bl6J DIO mice were obtained from The Jackson Laboratory (Sacramento, Calif.). […] Animals were accustomed to these conditions for at least 2 weeks before experimentation and used at approximately 24 weeks of age.
(§2) Significance was accepted when p<0.05.
Male C57/Bl6J DIO mice were obtained from The Jackson Laboratory (Sacramento, Calif.). […] Animals were accustomed to these conditions for at least 2 weeks before experimentation and used at approximately 26 weeks of age.

[4] = test system: C57/Bl6J DIO mice; test: Compound 72 in diet-induced obesity (DIO) mouse model; assay type: in vivo; conditions: 30 mg/kg PO QD 7 days
From the text: as §1, §2

liver exposure below the Per2 EC50 value ([2]; 30 mg/kg)	liver exposure higher than the Per2 EC50 value ([2]; 100 mg/kg)	Compound	liver Per2 expression ([1]; ZT6)	Cry2 transcripts ([1]; liver)	increase in Bmal1 mRNA at ZT6 ([1]; liver)	reduction of glucose AUC from vehicle ([2]; 30 mg/kg)	glucose AUC from OGTT ([2]; 30 mg/kg PO QD 7 days)	reduction of HOMA-IR compared to vehicle ([2]; 100 mg/kg)	reduction of glucose AUC from vehicle ([2]; 100 mg/kg)	glucose AUC from OGTT ([2]; 100 mg/kg PO QD 7 days)	reduction of glucose AUC from vehicle ([2]; 300 mg/kg)	glucose AUC from OGTT ([2]; 300 mg/kg PO QD 7 days)	glucose levels during the OGTT ([2]; 30 and 100 mg/kg, no increased effect at 300 mg/kg)	glucose AUC from OGTT [3]	glucose AUC from OGTT [4]
around 1.6 fold	2.2 fold	O=C1C(F)CCN1CC(O)Cn1c2ccc(F)cc2c2cc(F)ccc21 (stereo not shown) [Compound 9, 1-(3-(3,6-difluoro-9H-carbazol-9-yl)-2-hydroxypropyl)-3-fluoropyrrolidin-2-one]	suppression	decrease	4 fold	21%	44442+/−3895 units	60%	40%	33643+/−4822 units	40%	33650+/−4688 units	dose dependent reduction	–	–
–	–	CN(CCOc1ccc(CC2SC(=O)NC2=O)cc1)c1ccccn1 (stereo not shown) [Rosiglitazone, reference compound]	–	–	–	–	11502+/−2118 units	–	–	–	–	–	–	9858+/−1281 units	11500+/−1104 units

Source: patent US10759777B2, “Carbazole-containing amides, carbamates, and ureas as cryptochrome modulators” (Synchronicity Pharma, Inc., priority 2014, dated 2020)
